Results as given in patent US20040210047A1, “Methallyl sucroses and their epoxy derivatives” (priority 2003, published 2004).

Assays:
[1] = tested on: Salmonella Typhimurium TA-100; experiment: Modified Maron-Ames test, strain TA-100
Method: […] The assays were performed according to the modified methods of Maron and Ames (Maron D. R. and Ames, B. N. Mutation Research, 1980, Vol. 113, 173-215) using two strains of Salmonella Typhimurium TA-98 and TA-100, with and without metabolic activation of the substrate. The male rat microsomal homogenate S-9 was used to effect metabolic activation of the substrate. TA-98 and TA-100 were cultured in Oxoid Nutrient Broth No.2 at 37° C. for 16 hours using a gyratory shaker (200-250 rpm).
(§1) Compounds were assayed after the bacteria tested positive for the viability-related criteria above. Two mL top agar was placed in sterile culture tubes and kept at ˜40° C. in a water bath. Samples (100 μL) were placed in each tube (3 tubes per sample) and 100 μL of either strain TA-98 or TA-100 was added. When required, the S-9 homogenate (500 μL) was then added. The tubes were mixed and poured into minimal glucose agar plates. The plates were left at room temperature until the top agar solidified. Then, they were inverted and incubated at 37° C. for 48 hours. After incubation, revertant colonies were counted. Samples that presented greater than 2 times the number of revertant colonies were considered mutagenic. (See FIGS. 9(a) through (f)).

[2] = tested on: Salmonella Typhimurium TA-98; experiment: Modified Maron-Ames test, strain TA-98; details: for mutagenicity (revertant colonies): strain TA-98, with or without metabolic activation S-9; for cytotoxicity and mutagenicity, overall conclusion: tester strain TA-98, all concentrations
Method: Serial dilutions (100 fold) were made with DMSO to obtain samples with dilution factors of 10^−3, 10^−5, and 10^−7. The assays were performed according to the modified methods of Maron and Ames (Maron D. R. and Ames, B. N. Mutation Research, 1980, Vol. 113, 173-215) using two strains of Salmonella Typhimurium TA-98 and TA-100, with and without metabolic activation of the substrate. The male rat microsomal homogenate S-9 was used to effect metabolic activation of the substrate. TA-98 and TA-100 were cultured in Oxoid Nutrient Broth No.2 at 37° C. for 16 hours using a gyratory shaker (200-250 rpm).
as §1

Substance | mutagenic potential [1] | mutagenicity (revertant colonies) [2] | cytotoxicity and mutagenicity, overall conclusion [2]
epoxyallyl sucrose [EAS] | no mutagenic potential | no apparent mutagenicity | neither cytotoxic nor mutagenic
epoxycrotyl sucrose [ECS] | no mutagenic potential | no apparent mutagenicity | neither cytotoxic nor mutagenic
